From BigSolDB 2.1

C=C[C@]1(C)C[C@@H](OC(=O)CSC(C)(C)CNC(=O)[C@H](N)C(C)C)[C@]2(C)[C@H](C)CC[C@]3(CCC(=O)[C@H]32)[C@@H](C)[C@@H]1O.O=C(O)C(O)C(O)C(=O)O
solubility (mole fraction)
Settings | in acetone | in ethanol | in isopropanol | in n-butanol | in water
278.15 K | 0.000752 | 0.00132 | 0.000527 | 0.000913 | 0.000131
283.15 K | 0.000818 | 0.00208 | 0.000599 | 0.00102 | 0.000136
288.15 K | 0.000921 | 0.00269 | 0.000727 | 0.00114 | 0.000143
293.15 K | 0.00116 | 0.0031 | 0.000847 | 0.00129 | 0.000148
298.15 K | 0.00137 | 0.00373 | 0.00106 | 0.00141 | 0.000154
303.15 K | 0.00172 | 0.0048 | 0.00141 | 0.00162 | 0.000161
308.15 K | 0.00228 | 0.0059 | 0.00163 | 0.00184 | 0.000166
313.15 K | 0.00304 | 0.00766 | 0.00207 | 0.00225 | 0.000171
318.15 K | 0.0041 | 0.0103 | 0.0027 | – | 0.000173
323.15 K | – | – | 0.00348 | – | 0.000175
328.15 K | – | – | 0.00442 | – | –
333.15 K | – | – | 0.00606 | – | –
